Data on four compounds can be found in patent US20110021524A1, “COMPOSITIONS AND METHODS FOR TREATING CANCERS” (IRM LLC, priority 2008, published 2011).

Sequences of proteins named here, by UniProt entry; tags and fusion partners are left off. Residues count along the entry.
UniProt P00519, 28-1130 limits assumed: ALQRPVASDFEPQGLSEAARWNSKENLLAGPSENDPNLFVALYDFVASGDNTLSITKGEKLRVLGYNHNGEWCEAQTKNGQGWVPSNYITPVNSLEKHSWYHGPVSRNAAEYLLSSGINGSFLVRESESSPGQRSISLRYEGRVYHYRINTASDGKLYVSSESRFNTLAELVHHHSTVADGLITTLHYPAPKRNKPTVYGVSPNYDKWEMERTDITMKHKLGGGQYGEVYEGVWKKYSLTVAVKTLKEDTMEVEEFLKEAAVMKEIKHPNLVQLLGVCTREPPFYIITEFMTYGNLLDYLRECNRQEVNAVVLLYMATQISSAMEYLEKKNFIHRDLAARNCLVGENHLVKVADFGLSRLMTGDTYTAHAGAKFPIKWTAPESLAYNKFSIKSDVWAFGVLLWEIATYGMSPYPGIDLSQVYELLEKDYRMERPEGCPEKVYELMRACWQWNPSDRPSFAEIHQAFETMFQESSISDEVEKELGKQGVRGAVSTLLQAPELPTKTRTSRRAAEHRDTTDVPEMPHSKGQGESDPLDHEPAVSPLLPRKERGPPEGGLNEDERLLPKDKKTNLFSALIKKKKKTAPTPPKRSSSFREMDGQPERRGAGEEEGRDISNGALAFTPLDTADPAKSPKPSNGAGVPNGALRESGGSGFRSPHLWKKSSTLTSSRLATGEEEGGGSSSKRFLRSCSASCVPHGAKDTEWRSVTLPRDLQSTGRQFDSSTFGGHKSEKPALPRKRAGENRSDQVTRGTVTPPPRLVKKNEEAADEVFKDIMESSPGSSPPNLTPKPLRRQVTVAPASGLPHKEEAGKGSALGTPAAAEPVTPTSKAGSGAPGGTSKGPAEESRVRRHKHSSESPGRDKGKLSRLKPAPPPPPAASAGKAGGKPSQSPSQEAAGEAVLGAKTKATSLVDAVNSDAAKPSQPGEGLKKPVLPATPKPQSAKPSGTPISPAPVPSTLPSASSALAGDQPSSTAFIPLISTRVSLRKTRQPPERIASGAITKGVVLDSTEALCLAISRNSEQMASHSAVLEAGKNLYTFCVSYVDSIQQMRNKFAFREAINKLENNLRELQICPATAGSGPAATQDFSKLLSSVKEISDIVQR

By IC50 is commonly meant the concentration needed to halve the response being measured.

This assay concerns the target Bcr-Abl (Homo sapiens, UniProt P00519). Briefly: BCR-ABL activity of cis/trans conformation analogues (Table 4). The following applies: read-out: IC50 Bcr-Abl.

In the case of `FC(F)(F)Oc1ccc(Nc2nccc(NCCN3CCOCC3)n2)cc1`, the IC50 was over 10000 nM.

As to `FC(F)(F)Oc1ccc(Nc2cc(NCCN3CCOCC3)ncn2)cc1`, the IC50 was found to be 810 nM.

On to `FC(F)(F)Oc1ccc(Nc2ncnc(NCCN3CCOCC3)n2)cc1`, for which the IC50 was over 10000 nM.

For `Cc1c(NCCN2CCOCC2)ncnc1Nc1ccc(OC(F)(F)F)cc1`, the IC50 came to 970 nM.
